Our source for the MIC values is PMC9523135, “Apamin structure and pharmacology revisited” (Frontiers in Pharmacology, 2022).

≈ marks a conversion by molar mass, not a printed value.

Common to all, as to settings: lowest concentration causing 100% growth inhibition; 24 h, 37°C; n = 5
In assay [1] the test system is E. coli. Kind of assay: Antimicrobial assay, microtitre broth dilution, E. coli. Format: cell-based, Escherichia coli ATCC 25922. The protocol: (§1) Apamin was tested against Gram-positive (Enterococcus faecalis ATCC 29212, Staphylococcus aureus subsp. aureus ATCC 29213) and Gram-negative bacteria (Escherichia coli ATCC 25922, Pseudomonas aeruginosa ATCC 27853) following the previously described modification of the microtitre broth dilution method ([Vassilevski et al., 2010]). Those bacterial strains were also subjected to the treatment by melittin in the same concentration range to serve as a positive control.
(§2) Briefly, bacteria were cultured in a low-salt LB medium. The two-fold microtitre broth dilution assay was carried out in 96-well sterile plates in a final volume of 100 μL. Mid-exponential-phase cultures were diluted to a final concentration of 10^5 colony-forming units·ml^−1. Pure peptides were dissolved in 10 μL of water and added to 90 μL of the bacterial dilution. The samples, a non-treated control and a sterility control were tested in five independent experiments (n = 5). The microtitre plates were incubated for 24 h at 37°C, and growth inhibition was determined by measuring the absorbance at 620 nm. Minimum inhibitory concentration (MIC) is expressed as the lowest concentration of peptide that caused 100% bacterial growth inhibition.

In assay [2] the test system is P. aeruginosa. Nature of the assay: Antimicrobial assay, microtitre broth dilution, P. aeruginosa. Format: cell-based, Pseudomonas aeruginosa ATCC 27853. On the procedure: as §1, §2
The test system of assay [3] is S. aureus. Kind of assay: Antimicrobial assay, microtitre broth dilution, S. aureus. Format: cell-based, Staphylococcus aureus subsp. aureus ATCC 29213. On the procedure: as §1, §2

With `CC[C@H](C)[C@H](NC(=O)CN)C(=O)NCC(=O)N[C@@H](C)C(=O)N[C@H](C(=O)N[C@@H](CC(C)C)C(=O)N[C@@H](CCCCN)C(=O)N[C@H](C(=O)N[C@@H](CC(C)C)C(=O)N[C@H](C(=O)N[C@H](C(=O)NCC(=O)N[C@@H](CC(C)C)C(=O)N1CCC[C@H]1C(=O)N[C@@H](C)C(=O)N[C@@H](CC(C)C)C(=O)N[C@H](C(=O)N[C@@H](CO)C(=O)N[C@@H](Cc1c[nH]c2ccccc12)C(=O)N[C@H](C(=O)N[C@@H](CCCCN)C(=O)N[C@@H](CCCNC(=N)N)C(=O)N[C@@H](CCCCN)C(=O)N[C@@H](CCCNC(=N)N)C(=O)N[C@@H](CCC(N)=O)C(=O)N[C@@H](CCC(N)=O)C(N)=O)[C@@H](C)CC)[C@@H](C)CC)[C@@H](C)O)[C@@H](C)O)C(C)C)C(C)C` [Melittin], the MIC in assay [1] came to 1.5 µM (≈ 4.27 µg/mL); in assay [2], 6 µM (≈ 17.1 µg/mL); in assay [3], 3 µM (≈ 8.54 µg/mL).
